Measurements: patent EP4840856A1, “NOVEL COMPOUND AND USES THEREOF” (dated 2026)

The chains behind the UniProt entries cited, without tags or fusion partners.
UniProt Q04887, whole entry: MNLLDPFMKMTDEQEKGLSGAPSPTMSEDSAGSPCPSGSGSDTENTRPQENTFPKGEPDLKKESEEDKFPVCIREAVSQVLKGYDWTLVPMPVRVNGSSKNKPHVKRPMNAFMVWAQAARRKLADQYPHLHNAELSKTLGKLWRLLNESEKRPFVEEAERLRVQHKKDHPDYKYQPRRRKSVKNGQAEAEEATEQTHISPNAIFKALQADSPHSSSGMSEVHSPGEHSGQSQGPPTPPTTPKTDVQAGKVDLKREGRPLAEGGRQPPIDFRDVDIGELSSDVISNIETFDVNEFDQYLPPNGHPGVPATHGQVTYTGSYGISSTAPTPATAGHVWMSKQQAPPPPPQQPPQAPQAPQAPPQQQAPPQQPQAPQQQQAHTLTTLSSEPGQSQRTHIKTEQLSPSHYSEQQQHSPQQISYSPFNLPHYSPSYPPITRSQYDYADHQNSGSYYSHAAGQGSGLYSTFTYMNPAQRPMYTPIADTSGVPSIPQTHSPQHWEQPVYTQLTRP
UniProt P48436, whole entry: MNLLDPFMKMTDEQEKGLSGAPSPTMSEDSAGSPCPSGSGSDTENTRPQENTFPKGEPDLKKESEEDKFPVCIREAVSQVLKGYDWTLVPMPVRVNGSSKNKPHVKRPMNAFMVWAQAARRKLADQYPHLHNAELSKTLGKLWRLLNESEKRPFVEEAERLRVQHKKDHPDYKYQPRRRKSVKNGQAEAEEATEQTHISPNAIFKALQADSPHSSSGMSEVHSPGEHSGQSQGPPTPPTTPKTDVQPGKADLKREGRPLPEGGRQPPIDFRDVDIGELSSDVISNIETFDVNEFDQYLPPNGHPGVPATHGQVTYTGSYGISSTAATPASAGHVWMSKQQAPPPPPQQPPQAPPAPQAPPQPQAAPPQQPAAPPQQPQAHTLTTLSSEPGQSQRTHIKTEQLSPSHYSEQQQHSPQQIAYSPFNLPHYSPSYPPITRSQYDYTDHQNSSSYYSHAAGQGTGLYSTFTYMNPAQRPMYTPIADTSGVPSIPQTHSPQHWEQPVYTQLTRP

Tests used:
SOX9 [1] = target: T1, SOX9 (Mus musculus, UniProt Q04887); assay: SOX9 transcriptional activity luciferase assay (4X48pCol2a1-Luciferase / Renilla); conditions: for SOX9 activity: luminescence from the luciferase relative to DMSO, mouse primary chondrocytes, final concentration 7.5 mM as printed, 48 hours; for increase of SOX9 transcriptional activity: luciferase plasmid responding specifically to SOX9 transcriptional activity, FIG. 3b
Method: To confirm whether the compounds would enhance the SOX9 transcriptional activity, a luciferase assay capable of measuring SOX9 transcriptional activity was carried out using the following experimental method.
Mouse primary chondrocytes were extracted from mouse cartilage. The extracted cells were stabilized in a low-oxygen-environment incubator (O2 3%, CO2 5%). Here, the medium used was DMEM (Dulbecco Modified Eagle Medium, LM001-05, Welgene) supplemented with 10% FBS (fetal bovine serum, Gibco).
After cell stabilization, hyaluronidase type I-S (Sigma-Aldrich, Hase) was treated for 4 hours for transfection of the luciferase plasmid.
For transfection, Metafectene pro reagent (Biontex) was used to co-treat cells for 6 hours with the 4X48pCol2al-Luciferase plasmid, the expression of which is promoted by SOX9 transcriptional activity, and a Renilla luciferase plasmid, which is constitutively expressed as a transfection control. The 4X48pCol2a1-Luciferase plasmid and Renilla luciferase plasmid were as described in Kim, S. et al. "Tankyrase inhibition preserves osteoarthritic cartilage by coordinating cartilage matrix anabolism via effects on SOX9 PARylation," Nat Commun 10, 4898 (2019).
After 6 hours, the medium was replaced with a culture medium containing the compound. Here, each compound was dissolved in DMSO at a level of about 5 mM to 10 mM and dissolved in the medium to provide a final concentration of 7.5 mM.
After 48 hours, the cells were lysed and reacted with the luciferase substrate using a Dual Luciferase Assay Kit (Promega), and luminescence from the luciferase (relative to DMSO) was measured using a microplate reader. The results were classified according to the criteria below and shown in Table 6, providing the graph of FIG. 1.

[2] = test system: DMM-induced osteoarthritis (OA) mice; assay: Weight-bearing behavioral experiment in DMM osteoarthritis mice; conditions: change significant relative to DMSO-treated group, FIG. 16
Method: To confirm the recovery of osteoarthritis at the behavioral level, weight-bearing and Von-Frey behavioral experiments were performed. The weight-bearing experiment is an experiment that measures the degree to which the operated leg or non-operated leg bears weight upon drug treatment, to confirm the change in the degree of weight-bearing upon treatment with Compound C9 (FIG. 16).

SOX9 [3] = target: T1, SOX9; assay: Cut&Tag of SOX9 binding to DNA; conditions: DMSO subtracted, FIGS. 14a to 14f
Method: To investigate whether the SOX9 condensates altered by the drug are actually involved in transcriptional activity, a Cut&Tag experiment was performed to identify genome-wide DNA regions bound by SOX9. It was confirmed that SOX9 binding to DNA was increased upon drug treatment (FIG. 13).

SOX9 variants = assay: Condensation in cell lysates of SOX9 deletion variants and aromatic amino acid mutants
Method: Specifically, based on Compound C9, which had been confirmed to be the most efficacious, the binding site of the drug was investigated. SOX9 is divided into structured and unstructured regions; in particular, IDR as an unstructured region is so large as to constitute about 80% of the protein (FIG. 5a). To investigate which region of interaction induces the condensation effect of Compound C9, SOX9 variants in which each region was deleted were prepared. As in the above Experimental Examples, cell lysates of the SOX9 variants were prepared, and it was confirmed that when C9 was deleted in the IDR region corresponding to the C-terminus of the protein, the condensation phenomenon was lost (FIG. 5b). Furthermore, in order to narrow down the binding site, deletion variants were constructed at 35-amino acid intervals across the C-terminal region, and cell lysates of the variants were prepared and examined. Here, when the regions corresponding to regions 8 and 9, where aromatic amino acids are clustered, were deleted, the condensation phenomenon was confirmed to decrease sharply (FIG. 5c).
Cell lysates expressing mutants in which aromatic amino acids were substituted with alanine were prepared, and the importance of aromatic amino acids was confirmed. As in the case of the variants in which regions 8 and 9 were deleted, mutations of aromatic amino acids corresponding to regions 8 and 9 reduced the condensation phenomenon induced by Compound C9 (FIG. 6). It was confirmed through this that Compound C9 induces SOX9 condensation through interaction with the region where aromatic amino acids are clustered, in the unstructured region of the C-terminus of SOX9.

[4] = test system: mouse model of osteoarthritis (OA) induced by DMM (destabilization of the medial meniscus) surgery; assay: Recovery of cartilage tissue in DMM osteoarthritis mouse model; conditions: intra-articular injection 7 times at 1 week intervals, intra-articular concentration 750 µM, vs DMSO
Method: In order to confirm whether Compound C9 helps cartilage formation, an experiment was performed in which Compound C9 was injected intra-articularly a total of 7 times at intervals of 1 week so that the intra-articular concentration was 750 µM, in a mouse model of osteoarthritis (OA) induced by DMM (destabilization of the medial meniscus) surgery (FIG. 15a). […] To objectively evaluate the recovery of cartilage tissue, the OARSI Grade (a higher grade indicates greater damage to the cartilage tissue) was assessed through blinded testing by individual researchers.

SOX9 target genes = assay: mRNA levels of SOX9 target genes (qPCR); conditions: compared to DMSO; FIG. 10
OA-induced mice = assay: Von-Frey behavioral experiment in osteoarthritis mice; conditions: FIG. 17
Description: The Von-Frey behavioral experiment assesses cartilage recovery in mice by gently stimulating the plantar surface of the paws and recording the stimulus intensity at which the mice withdraw their paws as the stimulation increases (FIG. 17). When cartilage recovery improves, the intensity of the stimulus that the mice can endure increases.

SOX9 [5] = target: SOX9 (Homo sapiens, UniProt P48436); assay: SOX9 condensation in SOX9-eGFP overexpressing cell lysate, confocal fluorescence imaging; conditions: 1 hour at room temperature, compared to DMSO, FIG. 3a
Method: In a 100-mm dish, 9 × 10^5 cells to be transfected were seeded and grown for two days in a cell incubator. The grown cells were transfected with 7 µg of an SOX9-eGFP plasmid capable of overexpression in cells, using a transfection reagent (Poly-jet). Here, the cells were exposed to an FBS-free DMEM medium for 30 minutes. After 30 minutes, the SOX9-eGFP plasmid and Polyjet were mixed in DMEM and added to the cells after waiting for 10 minutes. After reacting in the incubator for 4 hours, an FBS-containing DMEM medium was added, and the cells were placed in the incubator for two days. Thereafter, the cells were detached using a scraper and centrifuged. Only the cell pellets were frozen in liquid nitrogen and stored in a -80°C freezer.
A cell lysis buffer containing 0.2% Triton X-100, 1 mM EDTA, 50 mM HEPES, 150 mM NaCl, 10% glycerol, 1% protease inhibitor cocktail, 1% phosphatase inhibitor cocktail (tyrosine, serine/threonine), and 2 mM TCEP was added to the cell pellets to disperse the pellets. […] The total protein concentration of the supernatant obtained was measured using a DC (detergent-compatible) assay, and the SOX9-eGFP concentration was measured using a fluorometer. The cell lysate, with its concentration measured, was used immediately or frozen in liquid nitrogen and stored at -80°C. […]
The fluorescence images taken were analyzed using an in-house MATLAB code. […]

**Q.** `COc1ccc(CCNC(=O)CCC(=O)Nc2nc(-c3cc4ccc(N(C)C)cc4oc3=O)cs2)cc1OC` was tested. Which SOX9 activity (SOX9 [1]) did it give?
**A.** The SOX9 activity was “++ (less than 5, 2 or more)”.

**Q.** With `COc1cccc2cc(-c3csc(NC(=O)CCC(=O)NCCc4ccncc4)n3)c(=O)oc12` as the molecule, how does the SOX9 activity (SOX9 [1]) read?
**A.** The SOX9 activity was “+++ (less than 8, 5 or more)”.

**Q.** `COc1ccc2cc(-c3coc(NC(=O)CCC(=O)NCCc4ccncc4)n3)c(=O)oc2c1` was tested. Which SOX9 activity (SOX9 [1]) did it give?
**A.** The SOX9 activity was “+ (less than 2, greater than 1)”.

**Q.** Which SOX9 activity (SOX9 [1]) does the source give for `COc1ccc(CCNC(=O)CCC(=O)Nc2nc(-c3cc4ccc(O)cc4oc3=O)cs2)cc1OC` here?
**A.** The SOX9 activity was “++ (less than 5, 2 or more)”.

**Q.** How did the SOX9 activity (SOX9 [1]) turn out when `COc1ccc2cc(-c3csc(NC(=O)CCC(=O)NCCc4ccc5ccccc5c4)n3)c(=O)oc2c1` was run?
**A.** Its SOX9 activity is “++ (less than 5, 2 or more)”.

**Q.** With `O=C(CCC(=O)Nc1nc(-c2cc3ccc(Br)cc3oc2=O)cs1)NCCc1ccncc1` as the molecule, how does the SOX9 activity (SOX9 [1]) read?
**A.** The SOX9 activity was “++ (less than 5, 2 or more)”.

**Q.** Which SOX9 activity (SOX9 [1]) does the source give for `COc1ccc2cc(-c3csc(NC(=O)CCC(=O)NCCc4ccc5c(c4)OCO5)n3)c(=O)oc2c1` here?
**A.** Its SOX9 activity is “++ (less than 5, 2 or more)”.

**Q.** Which SOX9 activity (SOX9 [1]) does the source give for “N^1-(4-((5,6-dimethoxy-1-oxo-2,3-dihydro-1H-indene-2-yl)methyl)piperidin-1-yl)-N^4-(4-(7-methoxycoumarin-3-yl)thiazol-2-yl)succinamide” here?
**A.** Its SOX9 activity is “++ (less than 5, 2 or more)”.

**Q.** Which results are given for `COc1ccc2cc(-c3csc(NC(=O)CCC(=O)NCCc4ccncc4)n3)c(=O)oc2c1`?
**A.** weight-bearing levels [2]: comparable to those observed in non-OA-induced mice; SOX9 binding to DNA of Col9a1, Acan and Comp (SOX9 [3]): increase binding at specific regions of the DNA; SOX9 binding to DNA of SOX9, Col2a1 and Chad (SOX9 [3]): increase SOX9 binding throughout the DNA; SOX9 condensation with deletion of the IDR region at the C-terminus (SOX9 variants; SOX9 deletion variant lysates, FIG. 5b): the condensation phenomenon was lost; SOX9 condensation with deletion of C-terminal regions 8 and 9 (SOX9 variants; deletion variants at 35-amino acid intervals across the C-terminal region, FIG. 5c): decrease sharply; SOX9 condensation with aromatic amino acids of regions 8 and 9 substituted with alanine (SOX9 variants; mutant cell lysates, FIG. 6): reduced the condensation phenomenon; OARSI grade ([4]; blinded, FIG. 15c): statistically significantly lower; recovery of damaged cartilage tissue ([4]; FIG. 15b): the damaged cartilage tissue was found to have recovered; mRNA levels of Col9a1, Acan and SOX9 (SOX9 target genes): highly upregulated; stimulus intensity endured (Von-Frey) (OA-induced mice): able to endure greater stimulus intensity; increase of SOX9 transcriptional activity (SOX9 [1]): about 8 fold; SOX9 activity (SOX9 [1]): ++++ (8 or more); induction of SOX9 condensation (SOX9 [5]): induced the condensation of SOX9

**Q.** How did the SOX9 activity (SOX9 [1]) turn out when `COc1ccc2cc(-c3csc(NC(=O)CCC(=O)NCCc4ccc(S(=O)(=O)F)cc4)n3)c(=O)oc2c1` was run?
**A.** Its SOX9 activity is “++ (less than 5, 2 or more)”.

**Q.** With `O=C(CCC(=O)Nc1nc(-c2ccc(F)cc2F)cs1)NCCc1ccncc1` as the molecule, how does the SOX9 activity (SOX9 [1]) read?
**A.** The SOX9 activity was “+ (less than 2, greater than 1)”.

**Q.** Which SOX9 activity (SOX9 [1]) does the source give for `COc1ccc(CCNC(=O)CCC(=O)Nc2nc(-c3ccc(C)cc3)cs2)cc1OC` here?
**A.** The SOX9 activity was “+ (less than 2, greater than 1)”.

**Q.** Which “increase of SOX9 transcriptional activity” value (SOX9 [1]) does the source give for `COc1ccc2cc(-c3csc(NC(=O)CCC(=O)NCCc4ccc(OC)c(OC)c4)n3)c(=O)oc2c1` here?
**A.** The value was “approximately 2 fold”.

**Q.** And the SOX9 activity (SOX9 [1])?
**A.** The SOX9 activity was “++ (less than 5, 2 or more)”.

**Q.** What about the “induction of SOX9 condensation” value (SOX9 [5]) of the same molecule?
**A.** The value was “induced the condensation of SOX9”.

**Q.** Which SOX9 activity (SOX9 [1]) does the source give for `O=C(CCC(=O)Nc1nc(-c2cc3cccc(O)c3oc2=O)cs1)NCCc1ccncc1` here?
**A.** The SOX9 activity was “++ (less than 5, 2 or more)”.

**Q.** For `COc1ccc2cc(-c3csc(NC(=O)CCC(=O)NCCc4cccs4)n3)c(=O)oc2c1`, which SOX9 activity (SOX9 [1]) is on record?
**A.** The SOX9 activity was “++ (less than 5, 2 or more)”.

**Q.** With `COc1ccc2cc(-c3csc(NC(=O)CCC(=O)Nc4cccc5cccnc45)n3)c(=O)oc2c1` as the molecule, how does the SOX9 activity (SOX9 [1]) read?
**A.** The SOX9 activity was “++++ (8 or more)”.

**Q.** `COc1ccc2cc(-c3csc(NC(=O)CCC(=O)NCCc4ccc(Cl)c(Cl)c4)n3)c(=O)oc2c1` was tested. Which SOX9 activity (SOX9 [1]) did it give?
**A.** Its SOX9 activity is “++ (less than 5, 2 or more)”.

**Q.** For `O=C(CCC(=O)Nc1ncc(C(=O)c2ccccc2)s1)NCCc1ccncc1`, which SOX9 activity (SOX9 [1]) is on record?
**A.** Its SOX9 activity is “++ (less than 5, 2 or more)”.
